Biological target: Protein smoothened (Homo sapiens, UniProt Q99835)
Experiment: Inhibition of human SMO expressed in HEPM cells
Assay type: cell-based

Chains of the proteins cited; added tags and fusions are not shown.
UniProt Q99835, whole entry: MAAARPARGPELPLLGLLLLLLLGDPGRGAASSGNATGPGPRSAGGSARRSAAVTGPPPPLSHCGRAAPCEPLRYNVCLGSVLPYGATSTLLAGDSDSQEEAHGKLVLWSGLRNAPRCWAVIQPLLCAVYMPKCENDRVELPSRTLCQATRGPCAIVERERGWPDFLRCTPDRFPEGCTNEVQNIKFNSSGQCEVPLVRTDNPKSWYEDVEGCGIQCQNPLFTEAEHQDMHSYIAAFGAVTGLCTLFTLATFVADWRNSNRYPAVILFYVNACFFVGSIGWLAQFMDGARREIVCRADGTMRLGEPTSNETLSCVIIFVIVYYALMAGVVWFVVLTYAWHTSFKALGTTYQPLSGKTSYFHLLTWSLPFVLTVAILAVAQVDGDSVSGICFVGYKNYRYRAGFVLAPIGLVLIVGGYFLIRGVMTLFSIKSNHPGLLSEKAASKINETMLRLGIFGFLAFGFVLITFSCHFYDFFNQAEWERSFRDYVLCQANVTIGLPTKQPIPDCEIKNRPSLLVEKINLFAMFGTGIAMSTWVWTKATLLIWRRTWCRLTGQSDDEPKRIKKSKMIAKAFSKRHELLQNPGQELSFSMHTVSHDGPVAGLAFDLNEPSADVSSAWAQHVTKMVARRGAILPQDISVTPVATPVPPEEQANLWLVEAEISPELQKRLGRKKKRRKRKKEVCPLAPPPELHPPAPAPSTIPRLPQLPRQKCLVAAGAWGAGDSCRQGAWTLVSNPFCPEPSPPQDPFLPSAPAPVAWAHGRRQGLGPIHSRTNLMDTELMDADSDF

| IC50 | SMILES |
| --- | --- |
| 19 nM | O=C(c1ccccc1)N1CCN(c2nnc(-c3ccccc3)c3ccccc23)CC1 |
| 0.7 nM | C[C@@H]1CN(C(=O)c2ccccc2)CCN1c1nnc(-c2ccc(Cl)cc2)c2ccccc12 |
| 3.6 nM | C[C@H]1CN(c2nnc(-c3ccc(C(F)(F)F)cc3)c3ccccc23)CCN1C(=O)c1ccccc1 |
| 11 nM | C[C@H]1CN(C(=O)c2ccccc2)CCN1c1nnc(-c2ccccc2)c2ccccc12 |
| 2.7 nM | C[C@@H]1CN(C(=O)c2ccccc2)CCN1c1nnc(-c2ccc(CO)cc2)c2ccccc12 |
| 13 nM | C[C@@H]1CN(c2nnc(-c3ccccc3)c3ccccc23)CCN1C(=O)c1ccccc1 |
| 7 nM | C[C@H]1CN(c2nnc(-c3ccc(Cl)cc3)c3ccccc23)CCN1C(=O)c1ccccc1 |
| 213 nM | C[C@H]1CN(c2nnc(-c3cccnc3)c3ccccc23)CCN1C(=O)c1ccccc1 |
| 0.4 nM | Cc1ccc(-c2nnc(N3CCN(C(=O)c4ccccc4)C[C@H]3C)c3ccccc23)cc1 |
| 3.2 nM | Cc1ccc(-c2nnc(N3CCN(C(=O)c4ccccc4)[C@@H](C)C3)c3ccccc23)cc1 |
| 2.2 nM | C[C@@H]1CN(C(=O)c2ccccc2)CCN1c1nnc(-c2ccccc2)c2ccccc12 |
| 10.8 nM | O=C(c1ccccc1)N1CCN(c2nnc(-c3ccc(F)cc3)c3ccccc23)CC1 |
| 4.4 nM | Cc1ccc(-c2nnc(N3CCN(C(=O)c4ccccc4)CC3)c3ccccc23)cc1 |
| 110 nM | C[C@H]1CN(c2nnc(-c3ccccn3)c3ccccc23)CCN1C(=O)c1ccccc1 |
| 2340 nM | C[C@H]1CN(c2nnc(N3CC=CC=N3)c3ccccc23)CCN1C(=O)c1ccccc1 |
| 11.8 nM | C[C@H]1CN(c2nnc(-c3ccc(F)cc3)c3ccccc23)CCN1C(=O)c1ccccc1 |
| 5.3 nM | C[C@H]1CN(c2nnc(-c3ccccc3)c3ccccc23)CCN1C(=O)c1ccccc1 |
| 2700 nM | C[C@H]1CN(c2nnc(-c3ncco3)c3ccccc23)CCN1C(=O)c1ccccc1 |
| 3.1 nM | C[C@@H]1CN(C(=O)c2ccccc2)CCN1c1nnc(-c2ccc(C#N)cc2)c2ccccc12 |
| 96 nM | C[C@H]1CN(c2nnc(-c3ccncc3)c3ccccc23)CCN1C(=O)c1ccccc1 |

Continued, compound first:

| SMILES | IC50 |
| --- | --- |
| C[C@@H]1CN(C(=O)c2ccccc2)CCN1c1nnc(-c2ccc(C(C)(C)C)cc2)c2ccccc12 | 10.1 nM |
| Cc1ccccc1-c1nnc(N2CCN(C(=O)c3ccccc3)CC2)c2ccccc12 | 15 nM |
| N#Cc1cccc(-c2nnc(N3CCN(C(=O)c4ccccc4)CC3)c3ccccc23)c1 | 212 nM |
| COc1cccc(-c2nnc(N3CCN(C(=O)c4ccccc4)CC3)c3ccccc23)c1 | 20 nM |
| O=C(c1ccccc1)N1CCN(c2nnc(-c3ccc(Cl)cc3)c3ccccc23)CC1 | 5.2 nM |
| O=C(c1nccs1)N1CCN(c2nnc(-c3ccccc3)c3ccccc23)CC1 | 9.5 nM |
| O=C(c1ccccc1)N1CCN(c2nnc(-c3ccccc3Cl)c3ccccc23)CC1 | 20.3 nM |
| CC(C)c1ccc(-c2nnc(N3CCN(C(=O)c4ccccc4)C[C@H]3C)c3ccccc23)cc1 | 7.3 nM |
| O=C(c1ccccc1)N1CCN(c2nnc(-c3ccc(Cl)c(Cl)c3)c3ccccc23)CC1 | 17.3 nM |
| CC(=O)N1CCN(c2nnc(-c3ccccc3)c3ccccc23)CC1 | 91 nM |
| COc1ccc(-c2nnc(N3CCN(C(=O)c4ccccc4)CC3)c3ccccc23)cc1 | 15 nM |
| C[C@@H]1CN(C(=O)c2ccccc2)CCN1c1nnc(-c2ccc(C(F)(F)F)cc2)c2ccccc12 | 2.8 nM |
| C[C@@H]1CN(C(=O)c2ccccc2)CCN1c1nnc(-c2ccc(C3CC3)cc2)c2ccccc12 | 2.3 nM |
| C[C@@H]1CN(C(=O)c2ccccc2)CCN1c1nnc(-c2ccc(N(C)C)cc2)c2ccccc12 | 5.2 nM |

From ChEMBL document CHEMBL1158625, “Design of 1-piperazinyl-4-arylphthalazines as potent Smoothened antagonists” (Bioorg Med Chem Lett, 2010)
